In PubChem BioAssay AID540317 (National Center for Advancing Translational Sciences (NCATS), 2011):
Only a part is listed here, and it is no random draw. Inconclusive results are not listed. Some salts and complexes are drawn in separate pieces, as the source files them; their charges need not balance. Active and inactive are the calls of the source. Calls come from the whole dose curve; as a rule, active = well fitted inhibition curve with a large enough effect; inconclusive = small, poorly fitted or top-dose-only effect; inactive = no such curve, though single readings can be large or run the other way.

By UniProt entry, the sequences of proteins in these tests, tags left out.
UniProt P83916, whole entry: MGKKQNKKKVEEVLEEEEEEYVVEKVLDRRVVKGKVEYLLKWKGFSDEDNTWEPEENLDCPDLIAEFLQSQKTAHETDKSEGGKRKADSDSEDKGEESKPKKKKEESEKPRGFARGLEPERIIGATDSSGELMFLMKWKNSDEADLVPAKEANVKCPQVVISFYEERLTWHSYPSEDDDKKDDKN

What follows are molecules tested against Chromobox protein homolog 1 (Homo sapiens) (UniProt P83916) (assay: HTS for Inhibitors of HP1-beta Chromodomain Interactions with Methylated Histone Tails). Conditions: AlphaScreen HP1-beta / biotin-H3K9me3 peptide binding; at 114 µM (top of the series).
Note: nearly all actives have a fitted effect of over 70% in size.

Row | SMILES | activity change, negative = inhibition
1 | CCCCOc1ccc(C(=O)NCC2(N3CCOCC3)CCCCC2)cc1 | inactive: 44.1%
2 | COc1ccccc1C(=O)NCC1(N2CCOCC2)CCCCC1 | inactive: 54.5%
3 | CCOc1ccc(C)cc1CN(CCCl)CCCl | inactive: 15.8%
4 | O=C1CCN(Cc2ccccc2)CC1 | inactive: 17.5%
5 | O=C(NCC1(N2CCOCC2)CCCCC1)c1ccc(Cl)cc1 | inactive: 33.5%
6 | CCOC(=O)N1CCC(Nc2ccc(OC)cc2)CC1 | inactive: -15.1%
7 | COc1ccc(Cl)cc1C(=O)NCC1(N2CCOCC2)CCCCC1 | inactive: 49.3%
8 | O=C(OC1CN2CCC1CC2)C1c2ccccc2Oc2ccccc21 (stereo not given) | inactive: 25%
9 | N#CC1(Nc2ccccc2)CCN(Cc2ccccc2)CC1 | inactive: 32%
10 | O=C(NCC1(N2CCCCC2)CCCCC1)c1ccc(Cl)s1 | inactive: 25.5%
11 | O=C(NCC1(N2CCOCC2)CCCCC1)c1cc2ccccc2o1 | inactive: 15.7%
12 | Cc1cc(C)cc(N(C(=O)c2ccccc2)C2CCN(C(=O)OC(C)(C)C)CC2)c1 | inactive: 44%
13 | O=C(NCC1(N2CCCCC2)CCCCC1)c1ccc(Cl)nc1 | inactive: 15.4%
14 | Cc1cccc(NC2(C#N)CCN(Cc3ccccc3)CC2)c1 | inactive: 33.8%
15 | CSc1ccccc1C(=O)NCC1(N2CCCCC2)CCCCC1 | inactive: -10.9%
16 | O=C(NCC1(N2CCCCC2)CCCCC1)c1cccs1 | inactive: 20.4%
17 | O=C(NCC1(N2CCCCC2)CCCCC1)c1ccc(=O)[nH]c1 | inactive: 29.2%
18 | CC(C)(C)OC(=O)N1CCC(N(C(=O)c2ccccc2)c2ccc(F)cc2)CC1 | inactive: 33.5%
19 | COc1ccc(C(=O)NCC2(N3CCCCC3)CCCCC2)c(OC)c1OC | inactive: 39.3%
20 | COc1ccc(C(=O)NCC2(N3CCCCC3)CCCCC2)cc1 | inactive: 11.6%
21 | CCCOc1ccc(C(=O)NCC2(N(C)C)CCCCC2)cc1OC | inactive: 14.7%
22 | O=C(NCC1(N2CCOCC2)CCCCC1)c1ccccc1Br | inactive: 24.2%
23 | CCCCOc1ccccc1C(=O)NCC1(N2CCOCC2)CCCCC1 | inactive: 46.2%

Row | SMILES | activity change, negative = inhibition
24 | COc1ccc2c(c1O)-c1c(O)c(OC)cc3c1[C@H](C2)[N+](C)(C)CC3.O=[N+]([O-])c1cc([N+](=O)[O-])c([O-])c([N+](=O)[O-])c1[O-] | inactive: 7.73%
25 | O=C(NCC1(N2CCCCC2)CCCCC1)c1cncc(Br)c1 | inactive: 2.8%
26 | O=C(OC1CN2CCC1CC2)c1ccc([N+](=O)[O-])cc1 (stereo not given) | inactive: 38.4%
27 | O=C(NCC1(N2CCOCC2)CCCCC1)c1cc(F)c(F)cc1Cl | inactive: 51.1%
28 | COc1cc(OC)c(C(=O)NCC2(N(C)C)CCCCC2)cc1OC | inactive: 6.67%
29 | O=[N+]([O-])c1cc([N+](=O)[O-])c(OC2CCCCC2O)c([N+](=O)[O-])c1 (stereo not given) | inactive: 46.8%
30 | CN(C)c1cccc(C(=O)NCC2(N3CCCCC3)CCCCC2)c1 | inactive: 10.9%
31 | COc1ccc(CN(CCCl)CCCl)cc1Cl | inactive: 47.9%
32 | CN1CCN(CCOC(=O)C(O)(c2ccccc2)c2ccccc2)CC1 | inactive: 1.54%
33 | CC(C)c1ccc(C(=O)NCC2(N3CCOCC3)CCCCC2)cc1 | inactive: 8.57%
34 | COc1ccc(NC2CCN(C(=O)OC(C)(C)C)CC2)cc1 | inactive: 2.31%
35 | COc1cc(C(=O)NCC2(N3CCCCC3)CCCCC2)ccc1OC(F)F | inactive: 30.9%
36 | O=C(NCC1(N2CCOCC2)CCCCC1)c1cc(=O)[nH]c2ccccc12 | inactive: 18.4%
37 | CCCOc1cccc(C(=O)NCC2(N3CCOCC3)CCCCC2)c1 | inactive: 55%
38 | O=C(NCC1(N2CCCCC2)CCCCC1)c1cccc(C(F)(F)F)c1 | inactive: 9.35%
39 | O=[N+]([O-])c1cc([N+](=O)[O-])c(NCC2CCS(=O)(=O)C2)c([N+](=O)[O-])c1 (stereo not given) | inactive: 22.1%
40 | CSc1ccc(C(=O)NCC2(N3CCOCC3)CCCCC2)cc1 | inactive: 9.85%
41 | CCOc1ccc(C(=O)NCC2(N3CCOCC3)CCCCC2)cc1 | inactive: 29.4%
42 | O=C(NCC1(N2CCCCC2)CCCCC1)c1cccc([N+](=O)[O-])c1 | inactive: 17.5%
43 | N#CC1(Nc2ccccc2)CCN(CCc2ccccc2)CC1 | inactive: 44.4%
44 | CCN1CCC(Nc2ccc(Cl)cc2)CC1 | inactive: -4.98%
45 | O=C(NCC1(N2CCCCC2)CCCCC1)c1ccc(OC(F)F)cc1 | inactive: -3.33%
